This series is described as follows: Nitric oxide analysis (NOA) release profile measured by chemiluminescence.

Structures are written as SMILES.

In the case of `[O-]/[N+](=N\O)C(/[N+]([O-])=N/O)/[N+]([O-])=N/O`, the “moles of NO released per 1 mole, in keeping with the described degradation pathway” value (basis of the theoretical yield) was 2 mol. Moreover, the “theoretical load / theoretical yield of NO” value (release of a single diazeniumdiolate group, 2 moles NO per mole) is reported as 7.6 μmol NO/mg.
